Patent US10434101B2, “Heterocyclic compounds and uses thereof” (Celgene CAR LLC, priority 2010, dated 2019)
pIC50: −log10 of the molar value.

Tests used:
[1] = target: T1, EGFR T790M/L858R (Homo sapiens (Human), UniProt P00533, L858R/T790M); settings: 10-fold excess of compound to protein
[2] = target: T1, EGFR T790M/L858R; test: Omnia assay, potency against EGFR (T790M/L858R) active enzyme; format: biochemical

Row | covalent modification of EGFR T790M/L858R by whole protein MS [1] | SMILES | further results
1 | covalently modify the protein | C=CC(=O)Nc1cccc(Oc2nc(Nc3ccc(N4CCN(C(=O)CO)CC4)cc3OC)ncc2Cl)c1 [Compound I-3, N-(3-(5-chloro-2-(4-(4-(2-hydroxyacetyl)piperazin-1-yl)-2-methoxyphenylamino)pyrimidin-4-yloxy)phenyl)acrylamide] | –
2 | – | C=CC(=O)Nc1cccc(Nc2nc(Nc3ccc(N4CCOCC4)cc3OC)ncc2Cl)c1 [Compound I-15, N-(3-(5-chloro-2-(2-methoxy-4-morpholinophenylamino)pyrimidin-4-ylamino)phenyl)acrylamide] | pIC50 ([2]; [EGFR-T790M/L858R]=2.5 nM, [ATP]=20 uM, 30 min pre-incubation): 8.00 to 9.00
3 | covalently modify the protein | C=CC(=O)Nc1cccc(Oc2nc(Nc3ccc(N4CCOCC4)cc3OC)ncc2C(F)(F)F)c1 [Compound I-1, N-(3-(2-(2-methoxy-4-morpholinophenylamino)-5-(trifluoromethyl)pyrimidin-4-yloxy)phenyl)acrylamide] | –
4 | – | C=CC(=O)Nc1cccc(Oc2nc(Nc3ccc(N4CCN(C(C)=O)CC4)cc3OC)ncc2C(F)(F)F)c1 [Compound I-10, N-(3-(2-(4-(4-acetylpiperazin-1-yl)-2-methoxyphenylamino)-5-(trifluoromethyl)pyrimidin-4-yloxy)phenyl)acrylamide] | Ratio WT/mutant [2]: >1
